Read-outs that look alike come from different tables or passages of the source.
What was measured:
CRF2R = target: T1, CRF2R (Homo sapiens, UniProt Q13324); assay: CRF2R agonist activity (EC50, Emax), called comparative CRF binding; type: cell-based
T1 sequence (Q13324 1-411): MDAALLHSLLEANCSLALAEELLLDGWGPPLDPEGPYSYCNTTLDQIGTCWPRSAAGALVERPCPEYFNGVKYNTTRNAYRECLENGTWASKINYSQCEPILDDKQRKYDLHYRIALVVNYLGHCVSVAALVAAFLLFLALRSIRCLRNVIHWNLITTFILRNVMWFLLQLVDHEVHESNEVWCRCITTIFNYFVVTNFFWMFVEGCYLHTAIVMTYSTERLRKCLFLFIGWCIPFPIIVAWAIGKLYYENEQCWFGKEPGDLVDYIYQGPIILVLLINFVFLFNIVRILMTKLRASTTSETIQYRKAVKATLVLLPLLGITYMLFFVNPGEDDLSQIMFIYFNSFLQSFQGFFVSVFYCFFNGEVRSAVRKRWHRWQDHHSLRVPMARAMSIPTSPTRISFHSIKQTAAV
Outline: (§1)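 Receptor activation was followed through cAMP, measured in lysates or by a CRE-linked reporter, after peptide or vehicle exposure. Cells carried a single CRF receptor subtype, CRF1R or CRF2R; where both were present, background from the non-target receptor was subtracted.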

CRF1R = target: T2, CRF1R (Homo sapiens, UniProt P34998); assay: CRF1R agonist activity (EC50, Emax), called comparative CRF binding; type: cell-based
T2 sequence (P34998 24-415): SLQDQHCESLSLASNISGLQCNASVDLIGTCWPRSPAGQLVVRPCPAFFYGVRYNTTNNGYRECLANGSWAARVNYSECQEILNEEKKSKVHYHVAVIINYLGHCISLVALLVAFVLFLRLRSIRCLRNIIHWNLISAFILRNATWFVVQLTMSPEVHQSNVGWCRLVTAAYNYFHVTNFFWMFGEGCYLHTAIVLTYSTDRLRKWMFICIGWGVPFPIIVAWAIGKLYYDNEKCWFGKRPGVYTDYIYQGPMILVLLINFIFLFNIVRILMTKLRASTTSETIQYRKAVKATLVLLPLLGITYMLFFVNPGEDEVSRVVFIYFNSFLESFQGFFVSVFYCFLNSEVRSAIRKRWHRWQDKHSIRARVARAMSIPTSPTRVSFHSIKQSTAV
Outline: as §1

CC[C@H](C)[C@H](NC(=O)[C@H](CCCNC(=N)N)NC(=O)[C@H](C)NC(=O)[C@H](CC(C)C)NC(=O)[C@H](CC(C)C)NC(=O)[C@H](CCCNC(=N)N)NC(=O)[C@H](C)NC(=O)[C@H](CC(N)=O)NC(=O)[C@H](CC(N)=O)NC(=O)[C@H](C)NC(=O)[C@H](C)NC(=O)[C@H](CCC(N)=O)NC(=O)[C@H](CCC(N)=O)NC(=O)[C@H](CCCCN)NC(=O)[C@H](CCC(=O)O)NC(=O)[C@H](CCCCN)NC(=O)[C@H](CCC(=O)O)NC(=O)[C@H](CCC(N)=O)NC(=O)[C@H](CCCCN)NC(=O)[C@H](CCC(=O)O)NC(=O)[C@@H](NC(=O)[C@H](CCC(=O)O)NC(=O)[C@@H](NC(=O)[C@@H](NC(=O)[C@H](CCCCN)NC(=O)[C@H](CCCNC(=N)N)NC(=O)[C@H](CC(C)C)NC(=O)[C@H](CC(C)C)NC(=O)[C@H](CCC(N)=O)NC(=O)[C@H](Cc1ccc(O)cc1)NC(=O)[C@@H]1CCCN1C(=O)[C@@H](NC(=O)[C@H](CC(=O)O)NC(=O)[C@@H](NC(=O)[C@H](CO)NC(=O)[C@@H](NC(=O)[C@@H]1CCCN1C(=O)[C@@H]1CCCN1C(=O)CNC(=O)[C@@H]1CCC(=O)N1)[C@@H](C)CC)[C@@H](C)CC)C(C)C)C(C)C)[C@@H](C)CC)[C@@H](C)CC)C(N)=O [compound 375]
EC50 (CRF2R): 11.5 nM
EC50 (CRF1R): ≥ 1000 nM

CC[C@H](C)[C@H](NC(=O)[C@@H](NC(=O)[C@H](CC(=O)O)NC(=O)[C@H](CC(C)C)NC(=O)[C@H](CC(C)C)NC(=O)[C@H](CC(C)C)NC(=O)[C@H](CCCNC(=N)N)NC(=O)[C@H](CC(N)=O)NC(=O)[C@H](CC(N)=O)NC(=O)[C@H](C)NC(=O)[C@H](C)NC(=O)[C@H](CCC(N)=O)NC(=O)[C@H](CCC(N)=O)NC(=O)[C@H](CCCCN)NC(=O)[C@H](CCC(=O)O)NC(=O)[C@H](CCCCN)NC(=O)[C@H](CCC(=O)O)NC(=O)[C@H](CCC(N)=O)NC(=O)[C@H](CCCCN)NC(=O)[C@H](CCC(=O)O)NC(=O)[C@@H](NC(=O)[C@H](CCC(=O)O)NC(=O)[C@@H](NC(=O)[C@H](CCSC)NC(=O)[C@H](CCCCN)NC(=O)[C@H](CCCNC(=N)N)NC(=O)[C@H](CC(C)C)NC(=O)[C@H](CC(C)C)NC(=O)[C@H](CCC(=O)O)NC(=O)[C@H](CC(C)C)NC(=O)[C@@H]1CCCN1C(=O)[C@H](CC(C)C)NC(=O)[C@H](CC(=O)O)NC(=O)[C@@H](NC(=O)[C@H](CO)NC(=O)[C@@H](NC(=O)[C@@H]1CCCN1C(=O)[C@@H]1CCCN1C(=O)CNC(=O)[C@@H]1CCC(=O)N1)[C@@H](C)CC)[C@@H](C)CC)[C@@H](C)CC)[C@@H](C)CC)[C@@H](C)O)C(N)=O [compound 82]
EC50 (CRF2R; read-out: CRF2R EC50): 10.9 nM
EC50 (CRF1R; read-out: CRF1R EC50): 96.2 nM

CC[C@H](C)[C@H](NC(=O)[C@H](CCC(=O)O)NC(=O)[C@@H](NC(=O)[C@H](CCSC)NC(=O)[C@H](CCCCN)NC(=O)[C@H](CCCNC(=N)N)NC(=O)[C@H](CC(C)C)NC(=O)[C@H](CC(C)C)NC(=O)[C@H](CCC(N)=O)NC(=O)[C@H](CC(C)C)NC(=O)[C@@H]1CCCN1C(=O)[C@H](CC(C)C)NC(=O)[C@H](CC(=O)O)NC(=O)[C@@H](NC(=O)[C@H](CO)NC(=O)[C@@H](NC(=O)[C@@H]1CCCN1C(=O)[C@@H]1CCCN1C(=O)CNC(=O)[C@@H]1CCC(=O)N1)[C@@H](C)CC)[C@@H](C)CC)[C@@H](C)CC)C(=O)N[C@@H](CCC(=O)O)C(=O)N[C@@H](CCCCN)C(=O)N[C@@H](CCC(N)=O)C(=O)N[C@@H](CCC(=O)O)C(=O)N[C@@H](CCCCN)C(=O)N[C@@H](CCC(=O)O)C(=O)N[C@@H](CCCCN)C(=O)N[C@@H](CCC(N)=O)C(=O)N[C@@H](CCC(N)=O)C(=O)N[C@@H](C)C(=O)N[C@H](C(=O)N[C@H](C(=O)N[C@@H](CC(N)=O)C(=O)N[C@@H](C)C(=O)N[C@@H](CCCNC(=N)N)C(=O)N[C@@H](CC(C)C)C(=O)N[C@@H](CC(C)C)C(=O)N[C@@H](CC(=O)O)C(=O)N[C@H](C(=O)N[C@H](C(N)=O)C(C)C)[C@@H](C)O)[C@@H](C)O)[C@@H](C)O [compound 246]
EC50 (CRF2R; read-out: CRF2R EC50): 38.8 nM
EC50 (CRF1R; read-out: CRF1R EC50): ≥ 1000 nM

CC[C@H](C)[C@H](NC(=O)[C@@H](NC(=O)[C@H](CC(=O)O)NC(=O)[C@H](CC(C)C)NC(=O)[C@H](CC(C)C)NC(=O)[C@H](CC(C)C)NC(=O)[C@H](C)NC(=O)[C@H](CC(N)=O)NC(=O)[C@H](CC(N)=O)NC(=O)[C@H](C)NC(=O)[C@H](C)NC(=O)[C@H](CCC(N)=O)NC(=O)[C@H](CCC(N)=O)NC(=O)[C@H](CCCCN)NC(=O)[C@H](CCC(=O)O)NC(=O)[C@H](CCCCN)NC(=O)[C@H](CCC(=O)O)NC(=O)[C@H](CCC(N)=O)NC(=O)[C@H](CCCCN)NC(=O)[C@H](CCC(=O)O)NC(=O)[C@@H](NC(=O)[C@H](CCC(=O)O)NC(=O)[C@@H](NC(=O)[C@@H](NC(=O)[C@H](CCCCN)NC(=O)[C@H](CCCNC(=N)N)NC(=O)[C@H](CC(C)C)NC(=O)[C@H](CC(C)C)NC(=O)[C@H](Cc1c[nH]c2ccccc12)NC(=O)[C@H](Cc1ccc(O)cc1)NC(=O)[C@@H]1CCCN1C(=O)[C@H](CC(C)C)NC(=O)[C@H](CC(=O)O)NC(=O)[C@@H](NC(=O)[C@H](CO)NC(=O)[C@@H](NC(=O)[C@@H]1CCCN1C(=O)[C@@H]1CCCN1C(=O)CNC(=O)[C@@H]1CCC(=O)N1)[C@@H](C)CC)[C@@H](C)CC)C(C)C)[C@@H](C)CC)[C@@H](C)CC)[C@@H](C)O)C(N)=O [compound 311]
EC50 (CRF2R): 11.7 nM
EC50 (CRF1R): ≥ 1000 nM

CC[C@H](C)[C@H](NC(=O)[C@@H](NC(=O)[C@H](C)NC(=O)[C@H](CC(C)C)NC(=O)[C@H](CC(C)C)NC(=O)[C@H](CC(C)C)NC(=O)[C@H](C)NC(=O)[C@H](CC(N)=O)NC(=O)[C@H](CC(N)=O)NC(=O)[C@H](C)NC(=O)[C@H](C)NC(=O)[C@H](CCC(N)=O)NC(=O)[C@H](CCC(N)=O)NC(=O)[C@H](CCCCN)NC(=O)[C@H](CCC(=O)O)NC(=O)[C@H](CCCCN)NC(=O)[C@H](CCC(=O)O)NC(=O)[C@H](CCC(N)=O)NC(=O)[C@H](CCCCN)NC(=O)[C@H](CCC(=O)O)NC(=O)[C@@H](NC(=O)[C@H](CCC(=O)O)NC(=O)[C@@H](NC(=O)[C@H](C)NC(=O)[C@H](CCCCN)NC(=O)[C@H](CCCNC(=N)N)NC(=O)[C@H](CC(C)C)NC(=O)[C@H](CC(C)C)NC(=O)[C@H](CCC(N)=O)NC(=O)[C@H](Cc1ccccc1)NC(=O)[C@@H]1CCCN1C(=O)[C@H](CC(C)C)NC(=O)[C@H](CC(=O)O)NC(=O)[C@@H](NC(=O)[C@H](CO)NC(=O)[C@@H](NC(=O)[C@@H]1CCCN1C(=O)[C@@H]1CCCN1C(=O)CNC(=O)[C@@H]1CCC(=O)N1)[C@@H](C)CC)[C@@H](C)CC)[C@@H](C)CC)[C@@H](C)CC)[C@@H](C)O)C(N)=O [compound 364]
EC50 (CRF2R; read-out: CRF2R EC50): 13.2 nM
EC50 (CRF1R; read-out: CRF1R EC50): ≥ 1000 nM

Source: patent US7192924B2, “Corticotropin releasing factor 2 receptor agonists” (priority 2002, dated 2007)
